Literature values, collected in US4161598A, “1-Oxygenated-2,6-methano-3-benzazocines” (Sterling Drug Inc., priority 1977, dated 1979).

Conditions: as the hydrochloride salt; Ziering reference; cited from earlier work

In the case of `COc1ccc2c(c1)[C@]1(C)CCN(C)[C@H](C2=O)[C@@H]1C` (relative stereo) [Compound 12], the “activity in analgesic, anti-inflammatory and antiedema, and morphine antagonist tests” value is given as “inactive in all tests except the morphine antagonist test in the mouse”.
